Data published in PMC8397948, “Effect of Selected Antidepressants on Placental Homeostasis of Serotonin: Maternal and Fetal Perspectives” (Pharmaceutics, 2021).
Counter-ions that a name gives are not always drawn.

Biological target: T1, OCT3 (Homo sapiens, UniProt O75751)
T1 construct: MVM and BM vesicles were used to evaluate the effects of antidepressants on SERT- and OCT3-mediated uptake of 5-HT, respectively; from tissue; host or cells: human term placenta, basal membrane (BM) vesicles
T1 sequence (O75751 1-556): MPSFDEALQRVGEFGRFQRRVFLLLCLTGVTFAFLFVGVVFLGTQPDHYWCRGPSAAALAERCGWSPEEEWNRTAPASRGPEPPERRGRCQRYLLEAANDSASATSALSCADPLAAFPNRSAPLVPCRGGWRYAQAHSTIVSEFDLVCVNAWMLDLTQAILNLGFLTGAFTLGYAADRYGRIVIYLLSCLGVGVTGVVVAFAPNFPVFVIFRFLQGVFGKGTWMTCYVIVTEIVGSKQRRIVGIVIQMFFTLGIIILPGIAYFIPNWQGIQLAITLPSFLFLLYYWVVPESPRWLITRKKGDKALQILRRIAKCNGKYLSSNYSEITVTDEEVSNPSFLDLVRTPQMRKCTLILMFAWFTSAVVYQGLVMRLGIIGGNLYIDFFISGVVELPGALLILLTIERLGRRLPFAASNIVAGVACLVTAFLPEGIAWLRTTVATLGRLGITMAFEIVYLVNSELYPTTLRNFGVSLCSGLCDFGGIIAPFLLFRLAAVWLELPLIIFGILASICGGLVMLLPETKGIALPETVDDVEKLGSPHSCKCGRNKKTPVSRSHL
Test: [3H]5-HT uptake by basal membrane (BM) vesicles from human term placenta
Assay type: biochemical

Row | SMILES | IC50 [nM]
1 | COc1ccc(C(CN(C)C)C2(O)CCCCC2)cc1 (centres unmarked) [Venlafaxine, venlafaxine hydrochloride] | 30.8
2 | CN(C)CCCC1(c2ccc(F)cc2)OCc2cc(C#N)ccc21 (centres unmarked) [Citalopram, citalopram hydrobromide] | 15.1
